# scFv variants of Ab-14 (light chain) against a SARS-CoV-2 spike peptide

All variants were tested on one target, the spike HR2 peptide PDVDLGDISGINAS (SARS-CoV-2).

Parent: Ab-14, a human scFv built as VH, a 15-residue (Gly4Ser)3 linker, VL. Only the CDRs of the light chain vary.
VH: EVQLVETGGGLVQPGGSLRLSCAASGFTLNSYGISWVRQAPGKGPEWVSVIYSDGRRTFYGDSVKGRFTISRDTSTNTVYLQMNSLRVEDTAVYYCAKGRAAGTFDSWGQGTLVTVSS
VL: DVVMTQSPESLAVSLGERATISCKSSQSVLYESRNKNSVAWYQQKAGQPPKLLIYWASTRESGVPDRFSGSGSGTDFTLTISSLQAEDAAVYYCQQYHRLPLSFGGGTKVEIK

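The starting antibody came from a phage panning campaign against this peptide. AAYL50 was designed without a model: most single CDR substitutions and a random sample of double and triple ones. AlphaSeq pools MATa yeast showing the antibodies with MATalpha yeast showing the peptide. Pairs that bind mate more often; barcode pairs of the diploids are counted by sequencing. The ratio of observed to expected reads was calibrated, replicate by replicate, on BCL2-family standards whose Kd was known from biolayer interferometry. Mating was done three times.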

Changes read parent residue, position, new residue, counted from the first residue of the VL shown. The Kd shown is the geometric mean over detected replicates; a lower Kd is a better binder. "not detected" marks a missing value. The strain was present, yet no cells mated with the target were sequenced in any replicate, which points to weak or no binding. As a blank, each scFv also met three strains without target: over library AAYL50, 18% of these pairings were detected, typically at 15 µM and seldom below 970 nM.

changes	Kd (apparent)	seen in
V29H+P101F+S103V	not detected	0/3
K24W+N37G+E61Y	not detected	0/3
K24D+S26K+Q95S	200 µM	2/3
R34I+T59L+L100Q	not detected	0/3
N35W+V39M+L102Y	not detected	0/3
N37M+Q95N+L100D	not detected	0/3
R34N+P101V	430 nM	3/3
W56R+R60G+P101I	not detected	0/3
N37Y+S58A+L102M	45 nM	3/3
Y31W+N35M+Y97W	39 nM	3/3
R34M+V39T+A57L	6.5 µM	3/3
Q27P+S33R+L102S	3.5 µM	1/3
K24Q+S33P+R34N	4.5 nM	3/3
S38G+S58I+L100D	8.2 µM	1/3
V29D+E32Q+Y97C	17 nM	3/3
S26P+S38M+W56V	not detected	0/3
S25T+H98I+P101L	3.1 nM	3/3
S62P+L100P	5.4 nM	3/3
S33E+S58T	29 nM	3/3
W56A+S58G+T59M	1.1 nM	3/3
Y31M+N35F+Q96F	4.6 µM	1/3
R34L+R60S+Q96P	39 nM	3/3
K36Y+E61V+R99I	4.3 nM	3/3
S25M+N37T	15 nM	3/3
Y31L+E32Y+S62D	10 nM	3/3
Y31L+E32A+W56L	25 nM	3/3
V29H+N37C+Y97T	not detected	0/3
S28E+V29L+S62E	1.6 nM	3/3
N35H+E61T+Q95K	4.1 µM	1/3
V29D+K36H+A57R	39 nM	3/3
Q95W+L100A+S103D	78 µM	1/3
R34K+A57C	1.9 µM	3/3
S28C+W56K	18 nM	3/3
A40I+S62C	130 µM	1/3
S25D+S26E+Y31T	21 nM	3/3
S25F+L30Q+Y31M	20 nM	3/3
E32P+H98W	100 nM	3/3
A57Y+T59R+E61G	26 µM	2/3
A57M+Q96C+L102D	24 µM	2/3

The remaining entries, values ahead:

Kd (apparent)	seen in	changes
250 nM	3/3	S26T+S33R+W56T
not detected	0/3	E32D+K36R+S38W
230 µM	1/3	V39D+E61R+L100E
not detected	0/3	Q27W+R34W+N35S
1.7 µM	1/3	K24Q+K36C+Y97S
4.0 µM	1/3	A57G+Y97N+L102N
not detected	0/3	S25H+Y97C+S103V
not detected	0/3	K24C+R34S+Q95F
2.0 nM	3/3	N37Y+W56Q+H98F
not detected	0/3	K36E+E61D+L100N
95 µM	2/3	A40H+Q96S+Y97D
19 nM	3/3	S25C+N35H+S62L
870 pM	3/3	W56S+E61T+L100F
31 µM	1/3	S62N+L102Y
2.1 µM	2/3	K24E+S26I+Q27F
510 µM	2/3	S28L+R60H+L100Y
600 nM	3/3	L30Q+L100P+S103G
21 nM	3/3	T59V+P101S+L102T
not detected	0/3	A40F+P101F
2.4 nM	3/3	S26T+W56A+A57D
840 nM	3/3	S26T+S58I+H98G
not detected	0/3	K36R+W56P+P101D
5.7 µM	1/3	S28A+S103G
180 nM	3/3	S33Q+L102V
57 µM	2/3	S28N+E61K+Q96R
420 µM	1/3	A40T+S58Q+S103W
4.5 nM	3/3	L30F+S33E+H98Q
3.4 nM	3/3	L30Y+Y31S
130 µM	3/3	N35R+S58P+S103P
2.4 nM	3/3	Y31D+N35Y+L100W
6.1 nM	3/3	S33L+R34D+N37F
61 µM	1/3	S33V+V39Y+L100G
29 µM	3/3	T59S+Q95L+Q96W
83 µM	1/3	E32V+S33A+A57S
16 µM	2/3	V39E+H98A+R99Q
5.1 µM	2/3	S26F+R60M
17 nM	3/3	Y31S+S58K+H98M
not detected	0/3	Q27M+T59I+Q96K
not detected	0/3	K24P+R34W+K36W

Again, the first 10 entries without any signal:

| changes | Kd (apparent) | seen in |
|---|---|---|
| V29H+P101F+S103V | not detected | 0/3 |
| K24W+N37G+E61Y | not detected | 0/3 |
| R34I+T59L+L100Q | not detected | 0/3 |
| N35W+V39M+L102Y | not detected | 0/3 |
| N37M+Q95N+L100D | not detected | 0/3 |
| W56R+R60G+P101I | not detected | 0/3 |
| S26P+S38M+W56V | not detected | 0/3 |
| V29H+N37C+Y97T | not detected | 0/3 |
| E32D+K36R+S38W | not detected | 0/3 |
| Q27W+R34W+N35S | not detected | 0/3 |

Values reported by Engelhart et al. 2022, doi:10.1038/s41597-022-01779-4 (FLAb copy).